One compound from patent US20230026259A1, “CA2 COMPOSITIONS AND METHODS FOR TUNABLE REGULATION” (Obsidian Therapeutics, Inc., priority 2019, published 2023) can be followed below.

One assay concerns human primary T cells. The experiment in a line: IL15-dependent expansion: T cell numbers and CD4/CD8 ratio by flow cytometry. The format is cell-based. The following applies: Acetazolamide treatment, 10 days. The method, then:
To test IL15-dependent expansion, beads were removed on day 10 and cells were washed. IL15 expressing or control T cells were then cultured in fresh culture media alone or in the presence of Acetazolamide or exogenous IL15 (1 ng/ml) for 10 days. The T cell numbers (Table 30) and the change in CD4/CD8 ratio (Table 31) were determined by flow cytometry.
On the technique in general: Flow cytometry measures light scatter and fluorescence of single cells or particles in a stream.

For another assay, the system named is T cells. The experiment in a line: CD40L expression of CA2 regulated CD40L constructs in T cells by FACS (dose response, time course). The format is cell-based. Particulars: CD4+ T cells with OT-001990, Acetazolamide 0.05 μM, 24 hours. The text has this: CD40L constructs regulated by Carbonic anhydrase DDs were generated and cloned into lentiviral vectors. Purified T cells were thawed and cultured with aCD3 aCD28 Dynabeads (in the ratio of 3 beads to 1 T cell).
The constructs were transduced in T cells the next day. […]

As for `CC(=O)Nc1nnc(S(N)(=O)=O)s1` [Acetazolamide, reference compound], the CD4/CD8 ratio result in the assay with human primary T cells is “decreased”. Besides, the “CD40L MFI” value in the assay on T cells was 123.
